4 molecules from patent US11597701B2, “Integrin ligands and uses thereof” (Arrowhead Pharmaceuticals, Inc., priority 2017, dated 2023) can be followed below.

Amino acid sequences for entries named in this document (tags omitted). Residues count along the entry.
UniProt P06756, 31-1048 limits assumed: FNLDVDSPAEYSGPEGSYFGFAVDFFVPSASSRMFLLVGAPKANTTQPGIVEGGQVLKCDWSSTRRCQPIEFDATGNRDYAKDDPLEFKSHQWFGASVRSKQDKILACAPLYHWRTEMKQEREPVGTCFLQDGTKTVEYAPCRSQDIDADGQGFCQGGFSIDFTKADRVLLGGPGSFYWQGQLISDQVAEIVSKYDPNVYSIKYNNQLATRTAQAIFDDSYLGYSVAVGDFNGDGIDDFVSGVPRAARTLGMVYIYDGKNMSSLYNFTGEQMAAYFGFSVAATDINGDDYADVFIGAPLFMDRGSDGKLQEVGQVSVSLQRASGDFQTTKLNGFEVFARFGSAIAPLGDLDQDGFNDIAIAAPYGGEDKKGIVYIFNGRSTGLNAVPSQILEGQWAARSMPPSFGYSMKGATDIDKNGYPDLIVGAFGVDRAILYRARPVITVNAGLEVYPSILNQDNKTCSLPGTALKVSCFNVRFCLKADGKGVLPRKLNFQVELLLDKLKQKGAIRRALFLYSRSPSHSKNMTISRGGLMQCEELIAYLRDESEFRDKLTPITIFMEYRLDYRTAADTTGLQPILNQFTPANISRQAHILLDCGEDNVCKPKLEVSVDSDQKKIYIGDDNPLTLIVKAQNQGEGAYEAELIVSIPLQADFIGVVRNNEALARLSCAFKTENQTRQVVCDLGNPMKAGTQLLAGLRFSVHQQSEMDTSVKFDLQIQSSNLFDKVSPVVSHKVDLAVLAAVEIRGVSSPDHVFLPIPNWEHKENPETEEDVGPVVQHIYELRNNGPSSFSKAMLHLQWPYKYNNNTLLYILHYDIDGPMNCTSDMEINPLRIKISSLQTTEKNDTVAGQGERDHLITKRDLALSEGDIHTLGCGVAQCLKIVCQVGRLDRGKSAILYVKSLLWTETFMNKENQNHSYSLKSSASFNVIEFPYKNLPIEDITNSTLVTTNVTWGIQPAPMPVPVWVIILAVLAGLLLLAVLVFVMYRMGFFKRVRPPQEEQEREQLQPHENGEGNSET
UniProt P18564, 22-788 limits assumed: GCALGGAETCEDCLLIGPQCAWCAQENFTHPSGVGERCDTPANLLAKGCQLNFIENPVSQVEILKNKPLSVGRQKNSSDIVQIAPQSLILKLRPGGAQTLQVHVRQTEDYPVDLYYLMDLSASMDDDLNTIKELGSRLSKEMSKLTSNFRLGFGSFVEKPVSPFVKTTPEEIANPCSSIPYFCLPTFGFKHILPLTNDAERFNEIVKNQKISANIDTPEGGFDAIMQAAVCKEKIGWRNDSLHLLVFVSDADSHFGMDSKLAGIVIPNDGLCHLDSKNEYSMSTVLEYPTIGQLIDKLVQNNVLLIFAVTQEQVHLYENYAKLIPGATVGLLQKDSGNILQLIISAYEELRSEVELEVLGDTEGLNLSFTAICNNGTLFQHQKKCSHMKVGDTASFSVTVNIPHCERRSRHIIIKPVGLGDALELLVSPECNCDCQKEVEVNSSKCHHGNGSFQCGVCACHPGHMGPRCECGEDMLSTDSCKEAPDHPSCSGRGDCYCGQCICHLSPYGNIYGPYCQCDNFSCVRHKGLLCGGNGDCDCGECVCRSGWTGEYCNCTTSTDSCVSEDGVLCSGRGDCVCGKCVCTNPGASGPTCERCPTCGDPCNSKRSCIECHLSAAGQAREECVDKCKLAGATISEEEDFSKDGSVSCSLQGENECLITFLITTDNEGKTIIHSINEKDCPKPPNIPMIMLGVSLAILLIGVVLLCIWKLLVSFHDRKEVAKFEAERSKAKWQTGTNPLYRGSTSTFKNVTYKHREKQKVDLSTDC
UniProt P18084, 24-799 limits assumed: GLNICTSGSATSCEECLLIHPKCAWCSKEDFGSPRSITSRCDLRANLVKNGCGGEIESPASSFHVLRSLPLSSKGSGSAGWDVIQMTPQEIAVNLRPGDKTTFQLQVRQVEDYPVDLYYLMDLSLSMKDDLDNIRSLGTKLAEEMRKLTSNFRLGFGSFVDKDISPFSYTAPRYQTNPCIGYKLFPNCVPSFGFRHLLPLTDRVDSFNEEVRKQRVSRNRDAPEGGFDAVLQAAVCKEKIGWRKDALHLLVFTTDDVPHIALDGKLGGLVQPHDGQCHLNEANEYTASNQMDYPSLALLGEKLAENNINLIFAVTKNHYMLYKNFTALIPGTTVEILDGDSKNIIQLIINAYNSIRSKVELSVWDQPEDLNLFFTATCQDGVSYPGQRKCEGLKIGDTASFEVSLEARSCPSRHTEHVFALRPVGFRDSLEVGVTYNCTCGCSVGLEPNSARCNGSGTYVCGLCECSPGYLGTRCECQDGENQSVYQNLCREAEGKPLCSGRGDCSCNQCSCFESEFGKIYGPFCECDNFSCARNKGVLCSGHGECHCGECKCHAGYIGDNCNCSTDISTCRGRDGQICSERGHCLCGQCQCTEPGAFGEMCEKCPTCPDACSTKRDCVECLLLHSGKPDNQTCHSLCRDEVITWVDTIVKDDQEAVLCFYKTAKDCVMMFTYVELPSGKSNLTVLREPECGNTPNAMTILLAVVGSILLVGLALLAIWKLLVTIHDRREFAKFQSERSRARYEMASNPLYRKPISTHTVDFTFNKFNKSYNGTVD
UniProt P05106, 27-788 limits assumed: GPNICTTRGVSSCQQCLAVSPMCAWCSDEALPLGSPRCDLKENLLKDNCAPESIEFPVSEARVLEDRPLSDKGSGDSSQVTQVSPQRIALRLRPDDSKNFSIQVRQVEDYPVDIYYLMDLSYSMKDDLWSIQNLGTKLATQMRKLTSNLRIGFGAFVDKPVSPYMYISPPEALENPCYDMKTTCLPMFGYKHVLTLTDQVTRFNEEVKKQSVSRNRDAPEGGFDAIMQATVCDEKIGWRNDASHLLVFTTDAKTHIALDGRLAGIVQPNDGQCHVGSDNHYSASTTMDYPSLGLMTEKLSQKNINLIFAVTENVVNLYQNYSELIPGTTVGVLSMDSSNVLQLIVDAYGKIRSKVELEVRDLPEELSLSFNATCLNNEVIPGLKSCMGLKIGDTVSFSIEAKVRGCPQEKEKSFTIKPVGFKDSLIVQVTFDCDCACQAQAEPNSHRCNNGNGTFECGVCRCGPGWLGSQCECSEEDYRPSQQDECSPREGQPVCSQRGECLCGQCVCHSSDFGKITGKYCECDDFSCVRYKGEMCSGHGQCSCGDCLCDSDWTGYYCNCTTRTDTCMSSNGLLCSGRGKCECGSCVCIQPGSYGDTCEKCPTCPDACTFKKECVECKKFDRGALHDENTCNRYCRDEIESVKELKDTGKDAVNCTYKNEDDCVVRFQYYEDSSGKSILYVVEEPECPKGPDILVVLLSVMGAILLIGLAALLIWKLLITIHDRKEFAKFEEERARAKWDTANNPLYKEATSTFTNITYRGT

In assay [1] the target is αvβ6 integrin (Homo sapiens, UniProt P06756+P18564). Kind of assay: IC50 binding activity (Examples 3 and 12). The conditions noted are these: for IC50: read-out: IC50 (nM) αvβ6; for selective binding to αvβ6 integrin: Example 3, versus αvβ3 and αvβ5. The source says:
(§1) As reported in the following Table 1, IC50 binding data was obtained for the αvβ6 integrin ligands of Structures 1 and 2:
(§2) Azide-functionalized structures (i.e., Structures 1b and 2b) were examined for IC50 under conditions typically used and known in the art.
As reported in the following Table 17, additional IC50 binding data was obtained for the αvβ6 integrin ligands of Structures 2, 6.1, 7, and 23 used in certain Examples herein:
Azide-functionalized structures (i.e., Structures 2b and 6.1b, 7b, and 23b) were examined for IC50 under conditions typically used and known in the art.

Assay [2] concerns the target αvβ5 (Homo sapiens, UniProt P06756+P18084). Kind of assay: IC50 binding activity (Example 3). The following applies: Example 3, Table 1; azide-functionalized structures (1b, 2b) examined.
Description: as §1, §2

Assay [3] concerns the target αvβ3 (Homo sapiens, UniProt P05106+P06756). Briefly: IC50 binding activity (Example 3). The following applies: Example 3, Table 1; azide-functionalized structures (1b, 2b) examined.
Description: as §1, §2

Where [4] appears, read: Example 12, Table 17, azide-functionalized structures (2b, 6.1b, 7b, 23b) examined.
Where [5] appears, read: Example 3, Table 1, azide-functionalized structures (1b, 2b) examined.

The structures appear in SMILES notation. Like-named read-outs stand apart in the source and are kept apart here.

For `Cc1ccnc(NCCCC(=O)N[C@H](C(=O)N[C@@H](CC(=O)O)c2ccc(-c3ccc(OCCOCCOCCOCCOCCN=[N+]=[N-])c4ccccc34)cc2)C(C)C)c1`, the IC50 in assay [1] (setting [4]) is 760 nM.
For `Cc1ccnc(NCCCCC(=O)N[C@@H](COCCOCCOCCOCCN=[N+]=[N-])C(=O)N[C@@H](CC(=O)O)c2ccc(-c3cccc4ccccc34)cc2)c1`, the “IC50 (nM) αvβ5” value in assay [2] is listed as “not active”. Moreover, in assay [3], the “IC50 (nM) αvβ3” value is listed as “not active”. Moreover, the “selective binding to αvβ6 integrin” value in assay [1] is recorded as “selective binding”. In assay [1] (setting [5]), the IC50 was determined as 13 nM.
For `Cc1ccnc(NCCCC(=O)N[C@@H](COCCOCCOCCOCCN=[N+]=[N-])C(=O)N[C@@H](CC(=O)O)c2ccc(-c3cccc4ccccc34)cc2)c1`, in assay [2], the “IC50 (nM) αvβ5” value is given as “not active”. In addition, the “IC50 (nM) αvβ3” value in assay [3] is “not active”. Further, the “selective binding to αvβ6 integrin” value in assay [1] is “selective binding”. The IC50 in assay [1] (setting [5]) came to 129 nM; in assay [1] (setting [4]) it was 205 nM.
With `Cc1ccnc(NCCCC(=O)NCC(=O)N[C@H](CC(=O)O)c2ccc(-c3ccc(OCCOCCOCCN=[N+]=[N-])c4ccccc34)cc2)c1`, in assay [1] (setting [4]), the IC50 came out at 382 nM.

For orientation: IC50 means the midpoint of a concentration-inhibition curve.
